# Publication PMC6559718 (Journal of biomolecular screening, 2016)
# Tested on: four hANT yeast strains
# Conditions: fermentable YPD medium
structure (smiles),measurement,value
O=C(Nc1cc(C(F)(F)F)cc(C(F)(F)F)c1)c1cc(Cl)ccc1O [IMD 0354],cytotoxic effect in glucose-containing medium,exhibited cytotoxic effect in certain strains
